In PubChem BioAssay (Tox21):
The list shows a part of the results, in another mix than the full data. Results filed as inconclusive are left out. The source made the active and inactive calls. The call rests on the fitted dose curve.
On the % scale 0 is the no-effect control and ±100 the full control effect; potency means the concentration at half of the fitted maximal effect.

Test: p53 small molecule agonists, cell-based qHTS assay with human liver microsomes: qHTS cell viability counter screen (AID 1963579); further: nearly all actives have a fitted effect of over 45% in size
Conditions: p53RE-bla HCT-116 viability, ATP luminescence, 16 h, HLM; series mostly up to 66 µM; activity change, negative = cytotoxicity: at the top concentration
Excerpt: National Center for Advancing Translational Sciences [NCATS]
Division of Preclinical Innovation [DPI]
U.S. Environmental Protection Agency [EPA]
National Institutes of Environmental Health Sciences [NIEHS]
National Toxicology Program [NTP]
U.S. Food and Drug Administration [FDA]
p53, a tumor suppressor protein, is activated following cellular insult, including DNA damage and other cellular stresses. The activation of p53 regulates cell fate by inducing DNA repair, cell cycle arrest, apoptosis, or cellular senescence. The activation of p53, therefore, is a good indicator of DNA damage and other cellular stresses. […] The activation of the reporter gene under culture conditions can be detected by fluorescence intensity. This cell line was used to screen the Tox21 10K compound library in the condition of presence of human liver microsomes and to identify agonists that activate the p53 signaling pathway after in vitro metabolic activation (Ooka et al., Archive of Toxicology 96:1975-1987, 2022).
Tox21 Assay Protocol Summary:
The p53RE-bla cells were dispensed at 4,000cells/3ul/well in 1536-well black-clear bottom plates. After the assay plates were incubated at 37 C, 5% CO2 incubator for 5 hours, 23 nL of compounds dissolved in DMSO, positive controls or DMSO only was transferred to the assay plate. Following compound addition, 3 uL of human liver microsomes (XenoTech, Kansas City, KS) at final concentration of 0.5 mg/mL and 1uL of B-Nicotinamide adenine dinucleotide 2'-phosphate (NADPH) at final concentration of 0.5 mg/mL were transferred to the assay plate. The plates were incubated at 37 C for 16 hours. 1 uL of LiveBLAzer detection mixture was added to each well and the plates were incubated at room temperature in the dark for 2 h. Fluorescence intensity at 460 and 530 nm emission and 405 nm excitation were measured by an Envision plate reader. For cell viability readout that measures cytotoxicity, 4 ul/well of CellTiter-Glo reagent was added into the assay plates using a Flying Reagent Dispenser. After 30 min incubation at room temperature, the luminescence intensity in the plates was measured using a ViewLux plate reader.
In the case of ClP(Cl)c1ccccc1, the “activity change, negative = cytotoxicity” value is reported as inactive: -8.21%. With O=P(Cl)(Oc1ccccc1)Oc1ccccc1 the “activity change, negative = cytotoxicity” value was inactive: 3.16%. In the case of O=C1C2CC=CCC2C(=O)N1SC(Cl)(Cl)C(Cl)Cl (stereo not drawn), the Potency is reported as “inactive”. In the case of NC(=O)Nc1ccc([As](=O)(O)O)cc1, the Potency is reported as “inactive”. For O=[P+](Oc1ccccc1)Oc1ccccc1, the “activity change, negative = cytotoxicity” value was inactive: -2.68%. With O=C(Cl)Oc1ccccc1 the “activity change, negative = cytotoxicity” value was inactive: 3.53%. For O=C(Cl)OCCOC(=O)Cl, the “activity change, negative = cytotoxicity” value was inactive: 8.25%. With O=P(Cl)(Cl)c1ccccc1 the “activity change, negative = cytotoxicity” value was inactive: -3.32%. For O=[N+]([O-])c1ccc([N+](=O)[O-])cc1, the “activity change, negative = cytotoxicity” value was inactive: -0.878%. With CCCCC(CC)CO[P+](=O)OCC(CC)CCCC (stereo not drawn) the “activity change, negative = cytotoxicity” value was inactive: -0.578%. In the case of Cc1cc([N+](=O)[O-])c(O)c([N+](=O)[O-])c1, the “activity change, negative = cytotoxicity” value is reported as inactive: 2.46%. In the case of O=[As]c1ccccc1 (stereo not drawn), the Potency is reported as active: 1290 nM. For Cc1cc([N+](=O)[O-])cc([N+](=O)[O-])c1O, the “activity change, negative = cytotoxicity” value was inactive: 8.25%. For CN(C(=O)Cc1ccc(Cl)c(Cl)c1)[C@H]1CC[C@@]2(CCCO2)C[C@@H]1N1CCCC1, the “activity change, negative = cytotoxicity” value was inactive: -1.55% [at 30.3 µM]. For CCC(C)(OOC(C)(C)C)OOC(C)(C)C, the activity change, negative = cytotoxicity was inactive: -9.49% [at 13.5 µM]. For O=[N+]([O-])c1ccc(S(=O)(=O)O)c([N+](=O)[O-])c1, the “activity change, negative = cytotoxicity” value was inactive: -8.77%. With CC(C)OP(=S)(OC(C)C)SCCNS(=O)(=O)c1ccccc1 the “activity change, negative = cytotoxicity” value was inactive: 11.5%. With CCCCO[P+](=O)OCCCC the Potency was “inactive”. In the case of CCOP(=S)(CC)Sc1ccccc1 (stereo not drawn), the “activity change, negative = cytotoxicity” value is reported as inactive: 11.2%. In the case of CCNC(C)Cc1ccc2c(c1)OCO2 (stereo not drawn), the “activity change, negative = cytotoxicity” value is reported as inactive: 24%. In the case of CCCCOP(OCCCC)OCCCC, the “activity change, negative = cytotoxicity” value is reported as inactive: 0.424%. With CN(C(=O)Cc1cccc2occc12)[C@H]1CC[C@@]2(CCCO2)C[C@@H]1N1CCCC1 the “activity change, negative = cytotoxicity” value was inactive: 18.3%. For COC(=O)Cl, the “activity change, negative = cytotoxicity” value was inactive: 7.23%. For CC(C)CCCCCCCOP(OCCCCCCCC(C)C)Oc1ccccc1, the “activity change, negative = cytotoxicity” value was inactive: 5.78%. With COP(=S)(Cl)OC the “activity change, negative = cytotoxicity” value was inactive: 7.82%. In the case of CCOC(=O)Cl, the “activity change, negative = cytotoxicity” value is reported as inactive: 2.63%. With CN(N=O)C(=N)N[N+](=O)[O-] the “activity change, negative = cytotoxicity” value was inactive: -6.37%. For CN(C(=O)Cc1ccccc1)[C@H]1CC[C@@]2(CCCO2)C[C@@H]1N1CCCC1, the “activity change, negative = cytotoxicity” value was inactive: -0.453% [at 30.3 µM].
